Literature values in US20120196057A1, “COMBINATION OF VITAMIN D AND 25-HYDROXYVITAMIN D 3” (priority 2008, published 2012).

Conditions: for several months; RDA 5-15 μg or 200-600 IU; cited from earlier work

Vitamin D
Chronic intake at which toxicity can occur: more than 100 times the recommended daily allowance
